Where “and” joins values, the source holds several entries; their conditions need not be identical. Equal values may be shown once. Where a name gives a salt, the structure may show the parent alone.
Tests used:
[1] = biological target: endogenous human D1-like dopamine receptor in MCF7 cells (Homo sapiens, UniProt P21728); assay: cell-based; conditions: for EC50: read-out: EC50 (nM), Endogenous hD1, MCF7 cells, cyclic AMP accumulation, 15 min at 37° C. (FIG. 3A)
Protocol: The data presented in FIG. 2B are the mean±SEM of three independent experiments assayed in duplicate.
The data presented in FIGS. 3B-C are the mean±SEM of three independent experiments assayed in duplicate.
Cell Culture. […] Cells were grown at 37° C. in a humidified incubator with 6% CO2.
Cyclic AMP accumulation assay. Assays were performed on confluent monolayers of cells in 48-well plates. […] Cyclic AMP stimulation assays were performed on HEK D1-CRELuc or MCF7 cells by incubating the cells with ligands for 15 minutes at 37° C. Cyclic AMP inhibition assays were performed on HEK-α2C cells in the presence 30 μM forskolin to stimulate cyclic AMP formation. All assays were performed in the presence of 500 μM isobutylmethylxanthine (IBMX) and terminated with ice cold 3% trichloroacetic acid.
Cyclic AMP binding assay. […] Briefly, cellular lysate (15-20 μL) was added to cyclic AMP binding buffer (100 mM Tris-HCl, pH 7.4, 100 mM NaCl, 5 mM EDTA) in assay tubes containing 1 nM final concentration [^3H]cyclic AMP and bovine adrenal gland cyclic AMP binding protein (100-150 μg in 500 μl binding buffer). The binding assay was incubated on ice at 4° C. for 2-4 hours and terminated by harvesting with ice cold wash buffer (10 mM Tris, 0.9% NaCl) using a 96-well Packard Filtermate cell harvester and Millipore Multiscreen Harvest Plates (Millipore, Billerica, Mass., USA). Packard Microscint O (40 μL) was added to each well after drying. Radioactivity was counted using a Packard Topcount scintillation counter. Standard curves ranging from 0.01 to 300 pmol of cyclic AMP were used to determine the concentration of cyclic AMP in each sample. Data analysis was performed on GraphPad Prism software.

Sequences of proteins named here, by UniProt entry; tags and fusion partners are left off.
UniProt P21728, whole entry: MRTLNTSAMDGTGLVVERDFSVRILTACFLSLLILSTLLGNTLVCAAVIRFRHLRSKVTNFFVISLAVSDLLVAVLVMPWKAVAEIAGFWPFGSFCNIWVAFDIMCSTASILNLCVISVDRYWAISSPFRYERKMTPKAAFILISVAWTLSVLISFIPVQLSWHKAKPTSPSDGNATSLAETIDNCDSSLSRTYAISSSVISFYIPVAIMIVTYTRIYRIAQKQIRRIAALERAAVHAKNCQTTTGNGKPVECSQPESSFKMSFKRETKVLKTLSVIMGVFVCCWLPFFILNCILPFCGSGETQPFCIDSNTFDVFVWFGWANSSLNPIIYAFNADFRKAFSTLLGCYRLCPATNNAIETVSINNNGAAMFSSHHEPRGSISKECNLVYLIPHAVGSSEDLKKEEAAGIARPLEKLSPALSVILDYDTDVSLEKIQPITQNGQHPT

[2] = biological target: human dopamine D1 receptor (Homo sapiens, UniProt P21728); assay: Cyclic AMP accumulation in HEK cells stably expressing the human dopamine D1 receptor (cloned hD1); type: cell-based; conditions: 15 min at 37° C.

Row | Compound | EC50 [1] [nM] | EC50 [2] | Emax ([1]; MCF7, read-out: intrinsic activity relative to dopamine in MCF7 cells) [%]
1 | Cl.Oc1cc2c(cc1O)C1c3ccccc3CNC1CO2 (racemic) [(±)-ODHX, 2,3-Dihydroxy-6a,7,8,12b-tetrahydro-6H-chromeno[3,4-c]isoquinoline hydrochloride] | 120 ± 30 |  | 
2 | Oc1cc2c(cc1O)[C@H]1c3ccccc3CN[C@@H]1CO2 [(+)-ODHX, (+)-(6aS,12bR)-2,3-Dihydroxy-6a,7,8,12b-tetrahydro-6H-chromeno[3,4-c]isoquinoline hydrochloride] | 190 ± 22 | ~50 nM and 53 nM | 
3 | Cl.Oc1cc2c(cc1O)[C@@H]1c3ccccc3CN[C@H]1CO2 [(−)-ODHX, (−)-(6aR,12bS)-2,3-Dihydroxy-6a,7,8,12b-tetrahydro-6H-chromeno[3,4-c]isoquinoline hydrochloride] | 2860 ± 1990 | 931 ± 99 nM | 
4 | Oc1cc2c(cc1O)C(c1ccccc1)CNCC2 (stereo not drawn) [SKF38393, reference compound] |  |  | ~30
